The values that follow are results of earlier work, collected in US8183258B2, “Heterocyclic compounds and their uses” (Amgen Inc., priority 2007, dated 2012).

Chains of the proteins cited; added tags and fusions are not shown.
UniProt P42338, whole entry, species assumed: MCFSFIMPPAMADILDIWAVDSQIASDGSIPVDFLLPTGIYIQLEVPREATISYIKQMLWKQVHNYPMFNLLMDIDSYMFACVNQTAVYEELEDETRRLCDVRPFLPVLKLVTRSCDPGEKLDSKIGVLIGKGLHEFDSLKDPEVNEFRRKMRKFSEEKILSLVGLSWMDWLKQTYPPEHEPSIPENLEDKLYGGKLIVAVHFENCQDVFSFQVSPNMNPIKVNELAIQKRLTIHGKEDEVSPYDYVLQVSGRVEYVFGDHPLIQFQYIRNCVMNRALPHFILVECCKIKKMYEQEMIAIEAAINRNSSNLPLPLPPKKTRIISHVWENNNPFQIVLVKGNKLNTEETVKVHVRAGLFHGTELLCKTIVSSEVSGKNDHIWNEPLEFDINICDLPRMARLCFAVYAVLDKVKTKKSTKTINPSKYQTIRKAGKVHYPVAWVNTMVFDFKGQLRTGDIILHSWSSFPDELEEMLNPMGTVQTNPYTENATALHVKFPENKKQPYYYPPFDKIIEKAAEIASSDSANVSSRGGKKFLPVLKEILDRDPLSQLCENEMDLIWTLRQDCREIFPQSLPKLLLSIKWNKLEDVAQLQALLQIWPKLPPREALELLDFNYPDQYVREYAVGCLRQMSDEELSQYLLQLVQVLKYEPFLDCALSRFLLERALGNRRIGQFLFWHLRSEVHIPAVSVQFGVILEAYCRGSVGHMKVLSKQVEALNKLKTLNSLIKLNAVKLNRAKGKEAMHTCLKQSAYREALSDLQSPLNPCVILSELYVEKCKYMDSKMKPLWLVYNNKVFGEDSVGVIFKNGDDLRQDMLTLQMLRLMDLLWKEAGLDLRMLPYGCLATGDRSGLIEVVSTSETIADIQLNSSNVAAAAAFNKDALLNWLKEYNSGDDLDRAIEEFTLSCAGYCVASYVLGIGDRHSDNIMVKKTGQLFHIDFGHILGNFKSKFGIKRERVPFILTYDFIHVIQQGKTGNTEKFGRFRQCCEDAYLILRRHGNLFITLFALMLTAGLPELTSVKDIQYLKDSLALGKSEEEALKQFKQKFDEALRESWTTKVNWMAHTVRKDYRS

The data set addresses p110β (Homo sapiens, UniProt P42338). The settings on record: read-out: potency on beta; cited from earlier work.

Turning to `Cc1cc(C(C)Nc2ccccc2)c2nc(N3CCOCC3)cc(=O)n2c1` (stereo not shown) [TGX-221], the IC50 was 7 nM.
